Test results published in patent US4209511A, “Aminoglycoside antibiotics and process for production thereof” (Yamanouchi Pharmaceutical Co., Ltd., priority 1978, dated 1980).

Test system: mice
Details: mouse, in vivo, iv, 125 mg/kg

For `NC[C@@H]1CC[C@@H](N)[C@@H](O[C@H]2[C@H](O)[C@@H](O[C@H]3O[C@H](CO)[C@@H](O)[C@H](N)[C@H]3O)[C@H](N)C[C@@H]2N)O1` [DKB, Dibekacin, reference compound], the “lethality, acute toxicity test” value was “killed all the mice tested”.
